Test results published in EP0044955B1, “Liquid herbicide mixtures” (BASF Aktiengesellschaft, priority 1980, dated 1982).

Assay: Solubility of Substanz 1 and Substanz 2 in solvents at room temperature
Type: physicochemical
From the text: Es wurde gefunden, daß eine flüssige Herbizidmischung auf der Grundlage eines Pyridazonderivats und eines Biscarbamats die obengenannten Bedingungen erfüllt, wenn sie eine Lösung der Wirkstoffe in einem Säureamid der allgemeinen Formel [drawing 4] enthält, in der R^1 einen Alkylrest mit bis zu 8 C-Atomen oder einen gegebenenfalls durch Methyl oder Äthyl substituieren Phenylrest und R^2, R^3 je einen Alkylrest mit zusammen bis zu 8 C-Atomen bedeuten und das Säureamid insgesamt 8 bis 15 C-Atome enthält. Beispiele von Säureamiden sind in der Tabelle 4 zusammengefaßt. Bestimmt wurden die Löslichkeiten der Substanzen 1 (Chloridazon) und 2 (Biscarbamat) wie sie in Tabelle 1 aufgeführt sind, sowie die Wasserlöslichkeit der Lösungsmittel.

For `Nc1cnn(-c2ccccc2)c(=O)c1Cl` [Substanz 1, 1-Phenyl-4-amino-5-chlor-pyridazon-(6), reference compound], the “Löslichkeit in % (g Substanz in 100 g Lösung bei Raumtemperatur (RT 20°C))” value (“Löslichkeit in %” for short) (in Cyclohexanon) was 7,0%, the “Löslichkeit in %” value (in Dimethylformamid) was 22,1% and the “Löslichkeit in %” value (in Dimethylsulfoxid) was 29,3%. For the same compound, the “Löslichkeit in %” value (in Isophoron) was 6,0%, the “Löslichkeit in %” value (in N-Methylpyrrolidon) was 22,5% and the “Löslichkeit in (%)” value (in Säureamid Nr. 1, Rt) was 8,7%. For the same compound, the “Löslichkeit in (%)” value (in Säureamid Nr. 2, Rt) was 13,5%, the “Löslichkeit in (%)” value (in Säureamid Nr. 3, Rt) was 12,2% and the “Löslichkeit in (%)” value (in Säureamid Nr. 4, Rt) was 7,8%. The “Löslichkeit in (%)” value (in Säureamid Nr. 5, Rt) was 10,8%, the “Löslichkeit in (%)” value (in Säureamid Nr. 6, Rt) was 8,1% and the “Löslichkeit in (%)” value (in Säureamid Nr. 7, Rt) was 10,4%. For the same compound, the “Löslichkeit in (%)” value (in Säureamid Nr. 8, Rt) was 9,6%, the “Löslichkeit in (%)” value (in Säureamid Nr. 9, Rt) was 10,8% and the “Löslichkeit in (%)” value (in Säureamid Nr. 10, Rt) was 10,8%. The “Löslichkeit in (%)” value (in Säureamid Nr. 11, Rt) was 8,6%, the “Löslichkeit in (%)” value (in Säureamid Nr. 12, Rt) was 8,3% and the “Löslichkeit in (%)” value (in Säureamid Nr. 13, Rt) was 9,6%.
